Source: ChEMBL document CHEMBL1149152, “Selective, orally active gamma-aminobutyric acidA alpha5 receptor inverse agonists as cognition enhancers” (J Med Chem, 2004)

Sequences of proteins named here, by UniProt entry; tags and fusion partners are left off. Residues count along the entry.
UniProt P18507, 40-475 limits assumed: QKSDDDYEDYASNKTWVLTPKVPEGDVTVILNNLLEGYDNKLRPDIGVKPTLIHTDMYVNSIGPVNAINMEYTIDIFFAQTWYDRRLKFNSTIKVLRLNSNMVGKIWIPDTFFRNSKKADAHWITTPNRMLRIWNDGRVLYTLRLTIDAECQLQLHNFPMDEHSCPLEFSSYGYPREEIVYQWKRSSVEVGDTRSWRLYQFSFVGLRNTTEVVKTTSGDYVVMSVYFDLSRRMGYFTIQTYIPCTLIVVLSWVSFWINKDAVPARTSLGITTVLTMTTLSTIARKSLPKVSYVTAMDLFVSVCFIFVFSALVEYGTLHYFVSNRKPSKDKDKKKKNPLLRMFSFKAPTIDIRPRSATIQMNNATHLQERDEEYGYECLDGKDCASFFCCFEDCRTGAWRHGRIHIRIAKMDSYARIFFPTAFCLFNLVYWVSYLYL
UniProt P28472, 26-473 limits assumed: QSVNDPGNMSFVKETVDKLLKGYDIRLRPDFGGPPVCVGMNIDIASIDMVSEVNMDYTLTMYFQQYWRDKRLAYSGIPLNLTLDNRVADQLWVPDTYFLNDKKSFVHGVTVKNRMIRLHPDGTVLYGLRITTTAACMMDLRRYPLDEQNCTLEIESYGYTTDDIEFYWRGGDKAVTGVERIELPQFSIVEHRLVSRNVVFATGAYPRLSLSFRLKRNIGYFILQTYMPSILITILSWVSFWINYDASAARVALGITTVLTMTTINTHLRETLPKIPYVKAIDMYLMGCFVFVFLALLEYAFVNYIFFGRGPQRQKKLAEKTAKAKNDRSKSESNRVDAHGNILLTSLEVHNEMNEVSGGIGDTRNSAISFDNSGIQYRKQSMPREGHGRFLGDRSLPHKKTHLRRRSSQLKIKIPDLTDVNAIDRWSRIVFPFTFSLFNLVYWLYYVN
UniProt P34903, 29-492 limits assumed: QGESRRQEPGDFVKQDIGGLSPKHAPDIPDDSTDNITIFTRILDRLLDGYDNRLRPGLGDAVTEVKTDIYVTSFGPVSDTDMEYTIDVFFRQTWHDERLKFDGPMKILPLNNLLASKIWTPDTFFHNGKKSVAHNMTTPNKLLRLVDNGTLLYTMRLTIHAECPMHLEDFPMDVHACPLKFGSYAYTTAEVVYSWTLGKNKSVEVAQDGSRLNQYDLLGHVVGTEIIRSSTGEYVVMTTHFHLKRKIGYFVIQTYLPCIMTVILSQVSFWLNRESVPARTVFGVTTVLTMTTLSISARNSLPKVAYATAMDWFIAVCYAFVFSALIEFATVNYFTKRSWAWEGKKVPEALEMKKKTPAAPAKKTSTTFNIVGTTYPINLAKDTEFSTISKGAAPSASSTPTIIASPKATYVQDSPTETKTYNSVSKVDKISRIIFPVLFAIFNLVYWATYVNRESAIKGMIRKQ
UniProt P14867, 28-456 limits assumed: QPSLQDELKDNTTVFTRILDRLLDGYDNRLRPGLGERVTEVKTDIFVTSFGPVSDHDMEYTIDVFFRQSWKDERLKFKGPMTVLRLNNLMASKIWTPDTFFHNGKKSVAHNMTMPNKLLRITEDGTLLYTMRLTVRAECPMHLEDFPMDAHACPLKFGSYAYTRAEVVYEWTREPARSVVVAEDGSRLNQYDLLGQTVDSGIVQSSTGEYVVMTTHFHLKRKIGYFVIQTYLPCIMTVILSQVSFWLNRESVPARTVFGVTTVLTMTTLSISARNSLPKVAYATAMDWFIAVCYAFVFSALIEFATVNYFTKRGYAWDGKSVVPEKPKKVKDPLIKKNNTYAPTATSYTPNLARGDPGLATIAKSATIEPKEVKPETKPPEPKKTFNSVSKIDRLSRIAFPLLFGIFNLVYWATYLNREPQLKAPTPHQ
UniProt P31644, 32-462 limits assumed: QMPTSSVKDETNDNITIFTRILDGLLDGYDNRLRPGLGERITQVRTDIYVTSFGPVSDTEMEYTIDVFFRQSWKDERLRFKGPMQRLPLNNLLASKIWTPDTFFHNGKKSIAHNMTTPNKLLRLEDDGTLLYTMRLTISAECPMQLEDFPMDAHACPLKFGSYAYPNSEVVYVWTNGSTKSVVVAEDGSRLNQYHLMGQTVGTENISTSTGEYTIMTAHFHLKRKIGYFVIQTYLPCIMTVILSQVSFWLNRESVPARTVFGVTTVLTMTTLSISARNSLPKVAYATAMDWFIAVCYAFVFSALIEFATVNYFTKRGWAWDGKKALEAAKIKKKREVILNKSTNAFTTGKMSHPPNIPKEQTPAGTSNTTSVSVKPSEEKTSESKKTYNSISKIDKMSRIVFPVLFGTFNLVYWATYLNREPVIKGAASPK

Legend:
Settings in all cases: oocyte
[1] = target: GABA-A receptor; alpha-3/beta-3/gamma-2 (Homo sapiens, UniProt P18507+P28472+P34903); assay: Displacement of [3H]-Ro- 15-1788 from human GABA-A alpha-3-beta-3-gamma-2 receptor subunits expressed in Xenopus oocytes
[2] = target: GABA-A receptor; alpha-1/beta-3/gamma-2 (Homo sapiens, UniProt P14867+P18507+P28472); assay: Displacement of [3H]-Ro- 15-1788 from human GABA-A alpha-1-beta-3-gamma-2 receptor subunits expressed in Xenopus oocytes
[3] = target: GABA-A receptor; alpha-5/beta-3/gamma-2 (Homo sapiens, UniProt P18507+P28472+P31644); assay: Displacement of [3H]-Ro- 15-1788 from human GABA-A alpha-5-beta-3-gamma-2 receptor subunits expressed in Xenopus oocytes

## CNC1=Nc2ccc(Cl)cc2C(c2ccccc2)=[N+]([O-])C1
[1]
  Ki: 740 nM
[2]
  Ki: 770 nM
[3]
  Ki: 520 nM
